Experimental data: ChEMBL document CHEMBL1152669, “New R/S-3,4-dihydro-2,2-dimethyl-2H-1-benzopyrans as K(ATP) channel openers: modulation of the 4-position” (Bioorg Med Chem, 2009)

Species: Rattus norvegicus
Experiment: Channel opening activity at KATP channel in Wistar rat pancreatic islets assessed as glucose-induced residual insulin secretion at 1 uM after 90 mins by radioimmunology
Method in brief: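 Islets from adult fed rats, groups of 10, preincubated 30 min at 37 °C in bicarbonate salt medium with 2.8 mM glucose, 0.5% dialyzed albumin, O2/CO2 gassed. Then incubated 90 min at 37 °C with 16.7 mM glucose plus drug. Insulin by radioimmunoassay against rat insulin standard; expressed as % of drug-free 16.7 mM glucose control; mean ± SEM (n).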

Activity: 97.7%
Structure (SMILES): CC(N/C(=N\C#N)Nc1ccncc1)C(C)(C)C (racemic) [PINACIDIL ANHYDROUS]
